Legend:
Adult male CD-1 mice [1] = assay: AITC-induced pain model (paw guarding, paw licks, paw edema); type: in vivo; settings: for Effect on development of AITC-induced paw edema: 4 h after AITC
Excerpt: (§1) The study fully conforms to the World Health Organization’s International Guiding Principles for Biomedical Research Involving Animals. All experiments were approved by the Institutional Commission for the Control and Use of Laboratory Animals of the Branch of the Shemyakin–Ovchinnikov Institute of Bioorganic Chemistry of the Russian Academy of Sciences (protocol number: IACUC No. 891/22, date of approval: 17 May 2022). Adult male CD-1 mice (weight ~30 g) were housed at room temperature (23 ± 2 °C) and subjected to a 12 h light–dark cycle with food and water available ad libitum. Peptides were dissolved in saline. The significance of the data was determined by analysis of variance (ANOVA) followed by Turkey’s post hoc test. Data are presented as mean ± SD.
To produce nocifensive behavioral response, TRPA1 agonist AITC (20 μL, 0.5% in saline) was injected into the plantar surface of the hind paw. Peptides or saline were administrated i.v. 30 min before AITC administration. The diameter of the paw was evaluated using an electronic digital caliper before the test and 2, 4, and 24 h after injection. The duration of paw guarding was recorded for 5 min after injection of AITC. Percent inflammation was calculated according to the formula ((post-dose paw diameter − before AITC paw diameter)/(control post-dose paw diameter − control before AITC paw diameter)) × 100%.

By UniProt entry, the sequences of proteins in these tests, tags left out.
UniProt Q6RI86, whole entry: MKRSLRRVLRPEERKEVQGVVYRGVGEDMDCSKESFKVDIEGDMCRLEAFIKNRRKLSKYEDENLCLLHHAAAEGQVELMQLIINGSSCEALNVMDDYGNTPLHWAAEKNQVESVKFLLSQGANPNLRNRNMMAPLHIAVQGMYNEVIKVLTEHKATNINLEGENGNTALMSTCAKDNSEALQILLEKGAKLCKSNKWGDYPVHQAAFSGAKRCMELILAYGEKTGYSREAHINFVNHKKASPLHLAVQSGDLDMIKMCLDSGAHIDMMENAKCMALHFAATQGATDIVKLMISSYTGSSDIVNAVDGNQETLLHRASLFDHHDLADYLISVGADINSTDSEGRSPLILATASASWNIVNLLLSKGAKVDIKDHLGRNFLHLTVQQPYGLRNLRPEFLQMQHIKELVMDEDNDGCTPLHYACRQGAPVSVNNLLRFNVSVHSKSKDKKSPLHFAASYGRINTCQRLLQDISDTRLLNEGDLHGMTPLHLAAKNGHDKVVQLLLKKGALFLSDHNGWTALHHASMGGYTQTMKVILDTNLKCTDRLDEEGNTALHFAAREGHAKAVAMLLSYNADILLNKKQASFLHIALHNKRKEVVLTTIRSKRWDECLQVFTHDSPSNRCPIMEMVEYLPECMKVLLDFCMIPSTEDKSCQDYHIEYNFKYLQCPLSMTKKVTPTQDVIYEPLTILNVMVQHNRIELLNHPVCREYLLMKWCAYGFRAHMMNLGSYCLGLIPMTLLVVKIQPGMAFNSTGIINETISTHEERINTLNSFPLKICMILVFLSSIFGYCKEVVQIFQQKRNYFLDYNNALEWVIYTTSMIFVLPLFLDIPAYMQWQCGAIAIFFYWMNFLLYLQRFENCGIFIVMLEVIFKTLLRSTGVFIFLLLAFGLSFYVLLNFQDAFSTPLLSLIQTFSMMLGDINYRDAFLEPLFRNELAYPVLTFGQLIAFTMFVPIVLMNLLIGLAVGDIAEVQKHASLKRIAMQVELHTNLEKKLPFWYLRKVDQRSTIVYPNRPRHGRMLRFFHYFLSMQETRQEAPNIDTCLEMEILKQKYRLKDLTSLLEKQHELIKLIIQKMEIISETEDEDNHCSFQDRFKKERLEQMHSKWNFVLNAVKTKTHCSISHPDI

Adult male CD-1 mice [2] = assay: CFA-induced inflammation and thermal hyperalgesia (hot plate, paw edema); type: in vivo; settings: i.v. 24 h after CFA, doses up to 0.5 mg/kg, hot plate 53 °C 30 min after peptide, n = 5–9
Excerpt: as §1
Test was induced using CFA suspended in an oil/saline (1:1) emulsion. […] Paw withdrawal latency was recorded using a hot plate (53 °C) 30 min after peptide or saline administration. The diameter of the paw was evaluated before CFA injection, before peptides or saline administration and 2, 4, and 24 h after peptides or saline administration using electronic digital caliper. Percent inflammation was calculated according to the formula ((post-dose paw diameter − before CFA paw diameter)/(control post-dose paw diameter − control before CFA paw diameter)) × 100%.

[3] = biological target: T1, rat TRPA1 (Q6RI86) channel (Rattus norvegicus, UniProt Q6RI86); assay: Potentiation of diclofenac-induced TRPA1 currents, two-electrode recordings in Xenopus laevis oocytes; type: cell-based; settings: higher than Ms 9a-1
T1 construct: expressed in transfected cells; host or cells: Xenopus laevis oocytes injected with cRNA
Description: Peptide activity was measured in Xenopus laevis oocytes, heterologously expressing the TRPA1 channel (Figure 2 and Figure S2). Recordings occurred in repeated 4 s pulses of voltage ramp from −100 mV to 100 mV over 200 ms, whereby inward current was measured at −100 mV and outward at 100 mV.
Oocytes expressing rat TRPA1 (Q6RI86) channel were prepared as described previously. Experiments were approved by the Institutional Animal Care and Use Committee (IACUC) of the Shemyakin–Ovchinnikov Institute of Bioorganic Chemistry Russian Academy of Sciences (Protocol Number 267/2018; date of approval: 28 February 2019). Female frogs were anaesthetized with 0.17% solution of tricaine methane sulfonate (MS222) and oocytes were surgically removed. cRNA was synthesized using a HiScribe™ T7 High Yield RNA Synthesis Kit (New England Biolabs, Ipswich, MA, USA) according to the manufacturers’ protocol for capped transcripts and then injected in X. laevis oocytes. The oocytes were kept for 2–7 days at 16–17 °C in sterile ND-96 medium (96 mM NaCl, 2 mM KCl, 1.8 mM CaCl2, 1 mM MgCl2, 5 mM HEPES, pH 7.4) supplemented with 50 μg/mL gentamycin. […] Inward/outward currents were recorded at repeated every 4 seconds a stimuli comprising step from holding potential to −100 mV for 80 ms followed by voltage ramp from −100 mV to +100 mV for 200 ms and final step to holding potential. […]

## CC[C@H](C)[C@@H]1NC(=O)[C@@H](NC(=O)CNC(=O)CNC(=O)[C@@H](NC(=O)[C@@H](NC(=O)[C@@H](NC(=O)[C@@H](N)CC(N)=O)[C@@H](C)CC)[C@@H](C)CC)C(C)C)CSSC[C@@H]2NC(=O)[C@H](CCCNC(=N)N)NC(=O)CNC(=O)[C@H](CO)NC(=O)[C@H](C)NC(=O)[C@H](CC(N)=O)NC(=O)[C@H](CCCCN)NC(=O)[C@H](C(C)C)NC(=O)[C@H](Cc3c[nH]cn3)NC(=O)[C@H](CSSC[C@@H](C(=O)NCC(=O)N[C@H](C(=O)O)C(C)C)NC(=O)CNC(=O)[C@H](C(C)C)NC(=O)[C@H]([C@@H](C)CC)NC(=O)[C@H](CCCNC(=N)N)NC(=O)[C@H](C(C)C)NC2=O)NC(=O)[C@H](CCCCN)NC1=O [N-Ms]
Adult male CD-1 mice [1]; 0.072 mg/kg i.v.
  Effect on development of AITC-induced paw edema: significantly decreased
Adult male CD-1 mice [1]; 0.3 mg/kg i.v.
  Effect on development of AITC-induced paw edema: no significant effect
Adult male CD-1 mice [1]; i.v. 30 min before AITC (20 μL, 0.5%), 5 min interval, over the doses tested, n = 6–8
  Decrease of duration of paw guarding after AITC: 35–64%
Adult male CD-1 mice [2]
  Effect on CFA-induced thermal hyperalgesia (paw withdrawal latency, hot plate): effective only at the highest dose tested
[3]; inward current
  Effective concentration for inward current compared to Ms 9a-1 (in words): of the same order of magnitude
[3]; outward current
  Effective concentration for outward current compared to Ms 9a-1 (in words): increased by more than an order of magnitude
